{
  "sequences": {"note": "The chains behind the UniProt entries cited, without tags or fusion partners. Where a name states a change or a piece, a line headed by the entry shows the natural chain unless it says otherwise.", "UniProt P00748": "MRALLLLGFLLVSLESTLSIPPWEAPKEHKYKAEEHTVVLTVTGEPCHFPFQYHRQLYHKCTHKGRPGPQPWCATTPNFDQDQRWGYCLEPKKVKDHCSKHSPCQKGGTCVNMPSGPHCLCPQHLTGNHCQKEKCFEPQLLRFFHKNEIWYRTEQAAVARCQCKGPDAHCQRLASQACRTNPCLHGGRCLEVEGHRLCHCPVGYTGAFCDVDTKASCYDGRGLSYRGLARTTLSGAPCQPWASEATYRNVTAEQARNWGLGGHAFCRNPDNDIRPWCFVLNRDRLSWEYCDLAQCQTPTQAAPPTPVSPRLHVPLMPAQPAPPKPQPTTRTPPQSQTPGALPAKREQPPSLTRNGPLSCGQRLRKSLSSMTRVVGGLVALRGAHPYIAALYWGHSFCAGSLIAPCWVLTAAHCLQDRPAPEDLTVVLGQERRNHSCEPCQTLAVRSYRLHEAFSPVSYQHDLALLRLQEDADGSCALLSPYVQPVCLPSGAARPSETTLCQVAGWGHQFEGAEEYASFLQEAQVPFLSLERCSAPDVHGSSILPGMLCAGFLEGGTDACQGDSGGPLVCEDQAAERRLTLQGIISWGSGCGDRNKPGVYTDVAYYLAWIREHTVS"},
  "source": "PubChem BioAssay AID852",
  "about": "(PCMD, 2007)",
  "target": "Coagulation factor XII (Homo sapiens) (UniProt P00748)",
  "test": "human FXIIa protease inhibitors, dose response, biochemical, confirmation of 1536-well hits (AID 852)",
  "details": "purified human plasma FXIIa, fluorogenic AMC substrate, 384-well, 2 h",
  "data": [
    {"smiles": "N=C(N)c1ccc(OCCCCCOc2ccc(C(=N)N)cc2)cc1", "values": [
      {"measurement": "IC50", "result": 13.7, "unit": "µM"}
    ]}
  ]
}
